Columns and labels:
[1] = target: Thymidine phosphorylase (Escherichia coli K-12, UniProt P07650); assay: Inhibition of recombinant Escherichia coli thymidine phosphorylase using thymidine as substrate by UV-spectrophotometric analysis
How it was run: (§1)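 TP (1.5 U/ml stock in pH 7.0 phosphate buffer) mixed with compound in DMSO (DMSO alone as blank) and thymidine (5 mM stock, 200 µl into 1 ml total) in pH 7.4 phosphate buffer. Absorbance decrease at 290 nm read at 4, 8, 12, 16 and 20 min. Velocity taken from the slope of a linear fit. Percent inhibition calculated versus the blank.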

Protein sequences, listed by entry. Tags and fused reporters are not part of them. Lines headed by an entry give the natural chain unless they say otherwise; changes in a name come on top.
UniProt P07650: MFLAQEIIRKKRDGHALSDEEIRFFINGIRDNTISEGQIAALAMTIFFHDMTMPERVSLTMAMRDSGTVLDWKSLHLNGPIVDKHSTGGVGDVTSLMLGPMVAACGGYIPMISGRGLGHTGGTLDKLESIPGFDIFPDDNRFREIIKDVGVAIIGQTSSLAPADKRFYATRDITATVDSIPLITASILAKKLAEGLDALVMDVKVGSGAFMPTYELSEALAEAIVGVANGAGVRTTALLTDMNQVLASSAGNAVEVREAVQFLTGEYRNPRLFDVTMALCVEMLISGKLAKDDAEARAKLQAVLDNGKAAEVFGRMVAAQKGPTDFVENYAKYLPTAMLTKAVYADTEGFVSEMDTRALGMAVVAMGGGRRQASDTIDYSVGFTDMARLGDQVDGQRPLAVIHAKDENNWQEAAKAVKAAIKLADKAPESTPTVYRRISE

[2] = target: Thymidine phosphorylase (Escherichia coli K-12) (UniProt P07650); assay: Inhibition of recombinant Escherichia coli thymidine phosphorylase using thymidine as substrate at 50 uM by UV-spectrophotometric analysis relative to control; how it was run: as §1

Row | inhibition [2] [%] | SMILES | IC50 [1] [µM]
1 |  | O=c1[nH]c(=O)c2cc[nH]c2[nH]1 [7-DEAZAXANTHINE] | 32.2
2 | 50 | O=c1[nH]c(=S)[nH]c2cc(-c3ccccc3)nn12 | 

From ChEMBL document CHEMBL2401703, “Synthesis of pyrazolo[1,5-a][1,3,5]triazine derivatives as inhibitors of thymidine phosphorylase” (Eur J Med Chem, 2013)
